Assay results taken from PubChem BioAssay AID488837 (National Center for Advancing Translational Sciences (NCATS), 2010).
Only a part is listed here, and it is no random draw. The source made the active and inactive calls. Calls follow the shape of the dose curve; as a rule, active = well fitted inhibition curve with a large enough effect; inconclusive = small, poorly fitted or top-dose-only effect, or effect the other way; inactive = flat fitted curve, though single readings scatter.

The chains behind the UniProt entries cited, without tags or fusion partners.
UniProt O00167, whole entry: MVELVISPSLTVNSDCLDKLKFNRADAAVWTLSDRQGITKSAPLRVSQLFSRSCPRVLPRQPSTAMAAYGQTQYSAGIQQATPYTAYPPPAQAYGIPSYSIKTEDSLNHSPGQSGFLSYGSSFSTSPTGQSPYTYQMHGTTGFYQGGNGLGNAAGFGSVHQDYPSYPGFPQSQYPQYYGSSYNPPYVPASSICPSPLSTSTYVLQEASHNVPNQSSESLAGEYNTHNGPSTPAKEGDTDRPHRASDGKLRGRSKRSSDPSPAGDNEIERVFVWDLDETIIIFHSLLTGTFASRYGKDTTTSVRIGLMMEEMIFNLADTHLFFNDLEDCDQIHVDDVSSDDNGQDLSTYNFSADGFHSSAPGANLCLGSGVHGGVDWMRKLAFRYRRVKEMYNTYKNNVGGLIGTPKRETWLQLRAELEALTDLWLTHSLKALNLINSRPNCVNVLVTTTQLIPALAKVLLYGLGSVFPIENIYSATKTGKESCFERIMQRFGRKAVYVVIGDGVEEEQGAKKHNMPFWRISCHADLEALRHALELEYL

Target: Protein phosphatase EYA2 (Homo sapiens) (UniProt O00167)
Experiment: qHTS Assay for Inhibitors of the Phosphatase Activity of Eya2
Conditions: recombinant Eya2, OMFP fluorescence dephosphorylation (OMFP is methylfluorescein phosphate); at 76.9 µM (top of the series)
Text: The Eya family of proteins are essential co-activators of the Six1 transcription factor. Six1 is a developmental gene that is abnormally re-expressed in a large percentage of breast cancers. This over-expression plays a causal role in the initiation and metastatic development of breast cancers. The Eya family of proteins was also found to contain a unique HAD phosphatase domain with protein tyrosine phosphatase activity which can potentially play a role in Six1-mediated breast tumorigenesis. […] We have developed and optimized a 1536 well fluorescence-based HTS assay targeting the phosphatase activity of Eya2. Inhibitors found against Eya2 could serve as potential therapeutic tools to inhibit Six1-mediated breast tumorigenesis and to increase the efficiency of radiation and certain chemo therapy. These inhibitors could also be used as chemical probes to study the function of Eya2's phosphatase activity and its role in Six1-mediated breast tumorigenesis.
The Eya2 enzyme was kindly provided by the laboratory of Dr. Rui Zhao. The 3-O-methyl-fluorescein phosphate (OMFP) substrate and all buffer reagents were purchased from Sigma Aldrich. qHTS Assay Setup: 1. Buffer- 50 mM HEPES pH 7.5, 50 mM NaCl, 5 uM MgCl2, 0.05% BSA, 1 mM DTT. 2. OMFP Stock- 10 mM solution prepared in 100% DMSO and stored in single use aliquots at -20C. […] Read on ViewLux using Excitation = 485 nm, Emission = 525 nm
% is scaled to controls: 0 for no effect and ±100 for the full control effect.

Row | Structure (SMILES) | activity, negative = inhibition
1 | CCC(=O)N(c1ccccc1)C1(COC)CCN(CCc2cccs2)CC1 | inactive: -36.3%
2 | CCC(=O)N(c1ccccc1)C1(COC)CCN(CCn2nnn(CC)c2=O)CC1 | inactive: -9.39%
